# Results taken from patent US10865196B2, “Compounds for treatment of cancer” (University of Tennessee Research Foundation, priority 2008, dated 2020).
# Test system: PC-3 tumors
# Experiment: PC-3 xenograft in nude mice
structure (smiles),measurement,setting,value
"CC(=O)O[C@@]12CO[C@@H]1C[C@H](O)[C@@]1(C)C(=O)[C@H](O)C3=C(C)[C@@H](OC(=O)[C@H](O)[C@@H](NC(=O)OC(C)(C)C)c4ccccc4)C[C@@](O)([C@@H](OC(=O)c4ccccc4)[C@H]21)C3(C)C [Docetaxel, reference compound]",TGI,"IV 10 mpk day 1 and 9, day 19",84%
same,TGI,"IV 20 mpk day 1 and 9, day 19, 20 mg/kg",> 100%
